Values of other authors in patent publication US6809181B2, “Human beta-defensin-3 (HBD-3), a highly cationic beta-defensin antimicrobial peptide” (University of Iowa Research Foundation, priority 2000, dated 2004).

Columns and labels:
Bordetella parapertussis = test system: Bordetella parapertussis; parameters: unit not given beside the values; conditions: n=46; r9; cited from earlier work
[1] = test system: Staphylococcus epidermidis; parameters: unit not given beside the values; conditions: n=50; r120; cited from earlier work
[2] = test system: Staphylococcus coagulase f; parameters: unit not given beside the values; conditions: cited from earlier work
[3] = test system: Staphylococcus aureus (methicillin resistant); parameters: unit not given beside the values; conditions: cited from earlier work
[4] = test system: Staphylococcus coagulase f (β-lactamase producer); parameters: MIC90: unit not given beside the values; conditions: n=38; r118; cited from earlier work
Streptococcus pneumoniae = test system: Streptococcus pneumoniae; parameters: unit not given beside the values; conditions: cited from earlier work
[5] = test system: Staphylococcus haemolyticus; parameters: unit not given beside the values; conditions: n=20; r121; cited from earlier work
Enterococcus faecalis = test system: Enterococcus faecalis; parameters: unit not given beside the values; conditions: cited from earlier work
Campylobacter pylori = test system: Campylobacter pylori; parameters: unit not given beside the values; conditions: n=13; r44; cited from earlier work
Enterococcus faecium = test system: Enterococcus faecium; parameters: unit not given beside the values; conditions: n=14; r51; cited from earlier work
Staphylococcus hominis = test system: Staphylococcus hominis; parameters: unit not given beside the values; conditions: n=20; r122; cited from earlier work
[6] = test system: Staphylococcus coagulase f (non β-lactamase producer); parameters: MIC90: unit not given beside the values; conditions: n=12; r116; cited from earlier work
Corynebacterium JK = test system: Corynebacterium JK; parameters: unit not given beside the values; conditions: n=19; r46; cited from earlier work

For `CC[C@H]1OC(=O)[C@H](C)[C@@H](O[C@H]2C[C@@](C)(OC)[C@@H](O)[C@H](C)O2)[C@H](C)[C@@H](O[C@@H]2O[C@H](C)C[C@H](N(C)C)[C@H]2O)[C@](C)(O)C[C@@H](C)C(=O)[C@H](C)[C@@H](O)[C@]1(C)O` [ERYTHROMYCIN, erythromycin], the MIC90 (Bordetella parapertussis) is listed as 0.25, the MIC90 [1] is listed as 64 and the MIC90 ([2]; n=10, r114) is listed as 2. The MIC90 ([2]; n=100, r115) was 64, the MIC90 ([3]; n=15, r108) was 64 and the MIC90 ([3]; n=20, r110) was 64. The MIC90 [4] was 4, the Range [4] was 0.06-16 and the MIC50 (Streptococcus pneumoniae; n=26, r129) was 0.03. For the same compound, the MIC50 (Streptococcus pneumoniae; n=50, r127) was 0.03, the MIC50 (Streptococcus pneumoniae; n=50, r130) was 0.06 and the MIC50 (Streptococcus pneumoniae; n=58, r125) was 0.06. The MIC90 [5] was 64, the MIC90 (Enterococcus faecalis; n=50, r48) was 64 and the MIC90 (Enterococcus faecalis; n=86, r49) was 64. The MIC90 (Campylobacter pylori) was 0.25, the MIC90 (Enterococcus faecium) was 64 and the MIC90 (Staphylococcus hominis) was 64. For the same compound, the MIC90 [6] was 0.25, the Range [6] was 0.03-8 and the MIC90 (Corynebacterium JK) was 64.

Like-named read-outs stand apart in the source and are kept apart here.
